In the assay the target is T1, NY-ESO-1 (modified peptide) peptide on HLA-A*02:01 (human).
T1 peptide: SLLMWITQV
In words: activation reporter or marker.

This is an account of results in patent US20220153807A1 (published 2022).

B1: CT139, MAGE-A3 pep1 TCR (both alpha and beta chains) (TCR, V domains shown)
Valpha: AQSVDQPDAHVTLSEGASLELRCSYSYSAAPYLFWYVQYPGQSLQFLLKYITGDTVVKGTKGFEAEFRKSNSSFNLKKSPAHWSDSAKYFCALEGPDTGNYKYVFGAGTRLKVIA
Vbeta: DAGVTQTPRHEVAEKGQTIILKCEPVSGHNDLFWYRQTKIQGLELLSYFRSKSLMEDGGAFKDRFKAEMLNSSFSTLKIQPTEPRDSAVYLCASSFGTASAETLYFGSGTRLTVL
For the molecule B1, the binding result is listed as “no recognition”.
